Experimental data published in patent US8927500B2, “Peptidomimetic macrocycles” (Aileron Therapeutics, Inc., priority 2012, dated 2015).

What was measured:
p21 = assay: P21 ELISA assay in SJSA1 cells; assay type: cell-based, Human; details: for p21 0.3 uM: 0.3 uM peptide; for p21 1 uM: 1 uM peptide; for p21 3 uM: 3 uM peptide; for p21 10 uM: 10 uM peptide; for p21 30 uM: 30 uM peptide
RKO cells = assay: Cell viability assay (MTT), RKO; details: read-out: RKO EC50 (72 h)

| SMILES | p21 0.3 uM (p21) | p21 1 uM (p21) | p21 3 uM (p21) | p21 10 uM (p21) | p21 30 uM (p21) | EC50 (RKO cells) |
| --- | --- | --- | --- | --- | --- | --- |
| CC(=O)N[C@@H](CCC(=O)O)C(=O)N[C@H](C(=O)N[C@@H](Cc1ccccc1)C(=O)N[C@]1(C)CCCCCCC=CCCC[C@@](C)(C(=O)N[C@@H](C)C(=O)N[C@@H](C)C(=O)N[C@@H](C)C(=O)N[C@@H](C)C(=O)N[C@@H](C)C(=O)N[C@H](C)C(N)=O)NC(=O)[C@H](CC(C)C)NC(=O)[C@H](CCC(N)=O)NC(=O)[C@H](C)NC(=O)[C@H](Cc2c[nH]c3ccccc23)NC(=O)[C@H](Cc2ccc(O)cc2)NC(=O)[C@H](CCC(=O)O)NC1=O)[C@@H](C)O (single isomer, unassigned) [compound 341] | 1325.62 | 1873 | 2039.75 | 2360.75 | 2574 | 15 to 30 µM |
| CC(=O)N[C@@H](C)C(=O)N[C@@H](CC(C)C)C(=O)N[C@H](C(=O)N[C@@H](Cc1ccccc1)C(=O)N[C@]1(C)CCCCCCC=CCCC[C@@](C)(C(=O)N[C@@H](CO)C(=O)N[C@@H](C)C(=O)N[C@@H](C)C(=O)N[C@H](C)C(N)=O)NC(=O)[C@H](CC2CCC2)NC(=O)[C@H](CCC(N)=O)NC(=O)[C@H](C)NC(=O)[C@H](Cc2c[nH]c3ccccc23)NC(=O)[C@H](Cc2ccc(O)cc2)NC(=O)[C@H](CCC(=O)O)NC1=O)[C@@H](C)O (single isomer, unassigned) [compound 355] | 191 | 688 | 1122 | 1223 | 1519 | 15 to 30 µM |
| CC(=O)N[C@@H](C)C(=O)N[C@@H](CC(C)C)C(=O)N[C@H](C(=O)N[C@@H](Cc1ccccc1)C(=O)N[C@]1(C)CCCCCCC=CCCC[C@@](C)(C(=O)N[C@@H](CO)C(=O)N[C@@H](C)C(=O)N[C@@H](C)C(=O)N[C@@H](C)C(=O)N[C@H](C)C(N)=O)NC(=O)[C@H](CC2CCC2)NC(=O)[C@H](CCC(N)=O)NC(=O)[C@H](C)NC(=O)[C@H](Cc2c[nH]c3ccccc23)NC(=O)[C@H](Cc2ccc(O)cc2)NC(=O)[C@H](CCC(=O)O)NC1=O)[C@@H](C)O (single isomer, unassigned) [compound 357] | 539 | 777 | 1080 | 1362 | 1177 | < 5 µM |
| CC(=O)N[C@@H](C)C(=O)N[C@@H](C)C(=O)N[C@@H](CC(C)C)C(=O)N[C@H](C(=O)N[C@@H](Cc1ccccc1)C(=O)N[C@]1(C)CCCCCCC=CCCC[C@@](C)(C(=O)N[C@@H](CO)C(=O)N[C@@H](C)C(=O)N[C@@H](C)C(=O)N[C@@H](C)C(=O)N[C@H](C)C(N)=O)NC(=O)[C@H](CC2CCC2)NC(=O)[C@H](CCC(N)=O)NC(=O)[C@H](C)NC(=O)[C@H](Cc2c[nH]c3ccccc23)NC(=O)[C@H](Cc2ccc(O)cc2)NC(=O)[C@H](CCC(=O)O)NC1=O)[C@@H](C)O (single isomer, unassigned) [compound 358] | 252 | 321 | 434 | 609 | 1192 | 15 to 30 µM |
| CC(=O)N[C@@H](C)C(=O)N[C@@H](C)C(=O)N[C@@H](CC(C)C)C(=O)N[C@H](C(=O)N[C@@H](Cc1ccccc1)C(=O)N[C@]1(C)CCCCCCC=CCCC[C@@](C)(C(=O)N[C@@H](CO)C(=O)N[C@@H](C)C(=O)N[C@@H](C)C(=O)N[C@@H](C)C(=O)N[C@H](C)C(N)=O)NC(=O)[C@H](CC2CCC2)NC(=O)[C@H](CCC(N)=O)NC(=O)[C@H](C)NC(=O)[C@H](Cc2c[nH]c3ccccc23)NC(=O)[C@H](Cc2ccc(O)cc2)NC(=O)[C@H](CCC(=O)O)NC1=O)[C@@H](C)O (single isomer, unassigned) [compound 359] | 1163.29 | 1508.79 | 1780.29 | 2067.67 | 2479.29 | 15 to 30 µM |
